## scFv variants of Ab-14 (light chain) against a SARS-CoV-2 spike peptide

The measurements come from Engelhart et al. 2022 (doi:10.1038/s41597-022-01779-4) through the FLAb antibody collection.

Binding partner: SARS-CoV-2 spike HR2 peptide, sequence PDVDLGDISGINAS.

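The parent was found by panning a naive human phage display library on the peptide. Variants in AAYL50 differ from the parent at up to three CDR positions; double and triple changes were sampled at random. The scFvs were displayed on barcoded MATa yeast, the peptide on MATalpha yeast. Pairs that bind mate more often; barcode pairs of the diploids are counted by sequencing. Each replicate has its own calibration line, from reference interactions of the BCL2 family. Mating was done three times.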

Each scFv is VH, a (GGGGS)3 linker, VL, as in the parent Ab-14, and differs from it in the CDRs of the light chain only.
VH: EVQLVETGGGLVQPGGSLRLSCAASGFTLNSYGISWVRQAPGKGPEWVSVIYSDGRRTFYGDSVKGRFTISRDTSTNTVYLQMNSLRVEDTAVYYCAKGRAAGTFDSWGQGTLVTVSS
VL: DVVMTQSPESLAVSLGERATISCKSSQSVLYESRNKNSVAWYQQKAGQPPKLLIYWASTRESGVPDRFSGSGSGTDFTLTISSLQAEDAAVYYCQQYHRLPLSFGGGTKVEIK

The whole VL of each variant is written out.
This list gathers variants with a substitution at A40 (VL, numbered from residue 1).
The Kd shown is the geometric mean over detected replicates; a lower Kd is a better binder.
"not detected" marks a missing value. The strain was present, yet no cells mated with the target were sequenced in any replicate, which points to weak or no binding.
Empty control strains, which show no peptide, gave a signal in 18% of pairings with library AAYL50; the median was 15 µM and 95% of these signals were weaker than 970 nM. No background was subtracted. For each scFv, signals with the empty controls are counted beside the result.

VL	Kd (apparent)	replicates with signal	signal with controls
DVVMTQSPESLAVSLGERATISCKSSQSVLGESRNKNSVFWYQQKAGQPPKLLIYQASTRESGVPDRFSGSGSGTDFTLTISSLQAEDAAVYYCQQYHRLPLSFGGGTKVEIK	680 µM	1 of 3	3 of 9
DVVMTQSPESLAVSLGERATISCKSSQSVLYESRNKNSVKWYQQKAGQPPKLLIYWASTRESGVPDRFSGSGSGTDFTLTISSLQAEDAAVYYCIQYHCLPLSFGGGTKVEIK	not detected	0 of 3	2 of 9
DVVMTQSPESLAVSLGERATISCKSKQSVLYCSRNKNSVQWYQQKAGQPPKLLIYWASTRESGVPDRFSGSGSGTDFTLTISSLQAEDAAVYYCQQYHRLPLSFGGGTKVEIK	170 µM	1 of 3	2 of 9
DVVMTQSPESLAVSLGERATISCKSSQSVLYESRNKNSVTWYQQKAGQPPKLLIYWASSRESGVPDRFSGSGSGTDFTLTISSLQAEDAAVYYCQQYHFLPLSFGGGTKVEIK	67 µM	2 of 3	3 of 9
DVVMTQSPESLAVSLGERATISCKSSQSVLYESRNKNSVGWYQQKAGQPPKLLIYWASTRESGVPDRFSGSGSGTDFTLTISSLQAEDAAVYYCQQYHRLPLSFGGGTKVEIK	3.4 µM	2 of 3	2 of 9
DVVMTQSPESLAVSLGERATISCKSSQSVLYESRNKNSVKWYQQKAGQPPKLLIYWASTRESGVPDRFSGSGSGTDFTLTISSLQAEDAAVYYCQQYHRLCLNFGGGTKVEIK	not detected	0 of 3	3 of 9
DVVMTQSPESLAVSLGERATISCKSSQSVLHESRNKNSVSWYQQKAGQPPKLLIYWASTRESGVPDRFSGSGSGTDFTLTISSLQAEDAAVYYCQQYHRLPLSFGGGTKVEIK	1.6 µM	3 of 3	3 of 9
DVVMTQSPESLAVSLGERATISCKSAQSVLYESRNKNSVQWYQQKAGQPPKLLIYWASTRVSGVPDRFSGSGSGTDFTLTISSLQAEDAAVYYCQQYHRLPLSFGGGTKVEIK	1.6 µM	1 of 3	2 of 9
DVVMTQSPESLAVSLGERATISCKFSQSVLYESANKNSVWWYQQKAGQPPKLLIYWASTRESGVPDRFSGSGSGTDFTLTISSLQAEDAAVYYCQQYHRLPLSFGGGTKVEIK	1.1 µM	1 of 3	2 of 9
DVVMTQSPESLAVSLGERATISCKSSQSVLYESRNKNSVKWYQQKAGQPPKLLIYWASTRVSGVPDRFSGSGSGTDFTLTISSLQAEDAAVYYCQQYHRMPLSFGGGTKVEIK	not detected	0 of 3	0 of 9
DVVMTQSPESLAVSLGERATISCKSSQSVLYESRNKNSVHWYQQKAGQPPKLLIYWASTRSSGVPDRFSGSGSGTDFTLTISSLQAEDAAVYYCQQYHRLPGSFGGGTKVEIK	290 µM	1 of 3	1 of 9
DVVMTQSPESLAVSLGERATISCKSSQSVLYKSRNKNSVGWYQQKAGQPPKLLIYWASTRESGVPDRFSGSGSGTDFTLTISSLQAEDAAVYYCQQVHRLPLSFGGGTKVEIK	not detected	0 of 3	0 of 9
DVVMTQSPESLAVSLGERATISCKSSQSVPVESRNKNSVHWYQQKAGQPPKLLIYWASTRESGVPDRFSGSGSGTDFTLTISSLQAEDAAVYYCQQYHRLPLSFGGGTKVEIK	13 µM	2 of 3	7 of 9
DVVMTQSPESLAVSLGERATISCKSSQSVLYESRNKNSVKWYQQKAGQPPKLLIYWASTRESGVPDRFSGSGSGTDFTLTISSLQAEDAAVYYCQQIHRLPNSFGGGTKVEIK	not detected	0 of 3	0 of 9
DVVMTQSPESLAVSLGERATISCKSSISVLYESRNKNSVYWYQQKAGQPPKLLIYWASTRESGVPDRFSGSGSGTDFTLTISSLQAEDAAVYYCQQYHRLPLRFGGGTKVEIK	not detected	0 of 3	0 of 9
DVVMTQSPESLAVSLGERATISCKSSQSVLSESRNKNSVYWYQQKAGQPPKLLIYWASTRESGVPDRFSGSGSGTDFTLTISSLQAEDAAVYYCHQYHRLPLSFGGGTKVEIK	not detected	0 of 3	1 of 9
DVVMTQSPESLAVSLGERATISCKSSQSVLYESRNKNSVMWYQQKAGQPPKLLIYWASTNESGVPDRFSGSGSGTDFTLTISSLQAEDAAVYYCQQYHRLPMSFGGGTKVEIK	not detected	0 of 3	1 of 9
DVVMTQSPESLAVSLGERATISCKSSQSHLYESRNKNSVQWYQQKAGQPPKLLIYWASTRESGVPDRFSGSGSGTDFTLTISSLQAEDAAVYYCQQYHRLPLSFGGGTKVEIK	290 nM	1 of 3	0 of 9
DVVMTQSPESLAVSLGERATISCKSSQSVLYESRNKNSVEWYQQKAGQPPKLLIYWASTRESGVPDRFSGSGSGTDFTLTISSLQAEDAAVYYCQQYHRLPLSFGGGTKVEIK	85 µM	2 of 3	4 of 9
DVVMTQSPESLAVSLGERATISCKSSQSVLYESRNKNSSSWYQQKAGQPPKLLIYNASTRESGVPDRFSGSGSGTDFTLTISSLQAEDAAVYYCQQYHRLPLSFGGGTKVEIK	not detected	0 of 3	1 of 9
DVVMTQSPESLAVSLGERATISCKSSQSVLYESRNKDSVKWYQQKAGQPPKLLIYWASTRESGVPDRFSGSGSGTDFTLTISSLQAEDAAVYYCTQYHRLPLSFGGGTKVEIK	not detected	0 of 3	0 of 9
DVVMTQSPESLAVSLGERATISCKSSQSVCYESRNKNSVLWYQQKAGQPPKLLIYWASTRPSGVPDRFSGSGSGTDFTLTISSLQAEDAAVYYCQQYHRLPLSFGGGTKVEIK	not detected	0 of 3	0 of 9
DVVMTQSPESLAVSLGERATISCKSSQSVLYESRNKNSVEWYQQKAGQPPKLLIYWASFRESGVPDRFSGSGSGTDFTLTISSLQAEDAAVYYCQQYHRLPLSFGGGTKVEIK	not detected	0 of 3	4 of 9